Values of other authors as cited in patent US6846817B2 (Regents of the University of Minnesota, priority 1999, dated 2005).

Sequences of proteins named here, by UniProt entry; tags and fusion partners are left off. Residues count along the entry.
UniProt P09483, 31-630 limits assumed: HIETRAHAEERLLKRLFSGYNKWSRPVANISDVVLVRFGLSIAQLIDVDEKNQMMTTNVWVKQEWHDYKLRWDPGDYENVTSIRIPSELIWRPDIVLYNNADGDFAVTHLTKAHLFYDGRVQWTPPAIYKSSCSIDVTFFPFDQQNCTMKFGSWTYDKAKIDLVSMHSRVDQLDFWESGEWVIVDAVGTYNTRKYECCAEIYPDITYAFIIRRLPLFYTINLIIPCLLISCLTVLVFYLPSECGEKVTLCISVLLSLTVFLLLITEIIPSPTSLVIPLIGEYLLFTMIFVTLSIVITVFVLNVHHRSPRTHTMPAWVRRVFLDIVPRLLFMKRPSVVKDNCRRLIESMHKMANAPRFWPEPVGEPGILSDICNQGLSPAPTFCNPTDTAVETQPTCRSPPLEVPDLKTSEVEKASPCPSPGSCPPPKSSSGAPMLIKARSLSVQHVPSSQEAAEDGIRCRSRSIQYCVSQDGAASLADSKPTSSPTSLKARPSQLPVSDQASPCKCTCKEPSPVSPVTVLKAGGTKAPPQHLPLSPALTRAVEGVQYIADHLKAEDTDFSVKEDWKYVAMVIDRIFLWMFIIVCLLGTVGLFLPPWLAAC
UniProt P12390, 25-500 limits assumed: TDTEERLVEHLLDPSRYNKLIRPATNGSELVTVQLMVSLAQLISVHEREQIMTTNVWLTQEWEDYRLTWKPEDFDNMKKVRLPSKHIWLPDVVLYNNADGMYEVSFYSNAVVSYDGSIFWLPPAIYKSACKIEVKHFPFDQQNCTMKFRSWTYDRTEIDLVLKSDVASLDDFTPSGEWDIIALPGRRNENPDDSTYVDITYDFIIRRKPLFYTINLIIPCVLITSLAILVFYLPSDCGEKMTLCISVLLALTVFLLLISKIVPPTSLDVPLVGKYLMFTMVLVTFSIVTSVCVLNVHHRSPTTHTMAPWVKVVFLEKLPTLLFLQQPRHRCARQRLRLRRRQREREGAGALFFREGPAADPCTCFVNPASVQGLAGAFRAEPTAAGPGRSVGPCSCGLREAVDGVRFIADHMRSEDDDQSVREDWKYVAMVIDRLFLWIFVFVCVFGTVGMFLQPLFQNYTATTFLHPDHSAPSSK
UniProt Q05941, 23-502 limits assumed: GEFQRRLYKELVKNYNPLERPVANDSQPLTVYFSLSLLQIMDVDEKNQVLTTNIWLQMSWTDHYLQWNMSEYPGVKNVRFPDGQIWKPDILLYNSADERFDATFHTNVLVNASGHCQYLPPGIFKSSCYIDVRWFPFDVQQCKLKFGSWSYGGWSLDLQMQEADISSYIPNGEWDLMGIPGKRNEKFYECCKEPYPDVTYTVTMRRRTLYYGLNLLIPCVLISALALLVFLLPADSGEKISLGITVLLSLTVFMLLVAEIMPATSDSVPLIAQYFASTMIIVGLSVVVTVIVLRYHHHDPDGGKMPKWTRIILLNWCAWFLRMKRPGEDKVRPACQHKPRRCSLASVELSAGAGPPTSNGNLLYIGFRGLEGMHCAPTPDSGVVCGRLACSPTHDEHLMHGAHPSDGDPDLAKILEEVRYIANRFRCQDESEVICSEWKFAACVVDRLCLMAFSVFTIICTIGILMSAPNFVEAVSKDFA

How the values were obtained:
α4β2 nicotine receptor = α4β2 nicotine receptor (Rattus norvegicus, UniProt P09483+P12390); details: read-out: Ki-[3H]Cytisine; rat brain; from Donnelly-Roberts et al., 1998; cited from earlier work
α7 nicotine receptor = α7 nicotine receptor (Rattus norvegicus, UniProt Q05941); details: cited from earlier work
[1] = target: α4β2 nicotinic acetylcholine receptor subtype (Rattus norvegicus, UniProt P09483+P12390); details: read-out: Ki, inhibition of [3H]-nicotine binding; rat brain; cited from earlier work

SMILES: Clc1ccc(OC[C@@H]2CCN2)cn1
- Ki (α4β2 nicotine receptor): 0.039 nM
- Ki (α7 nicotine receptor): 4620 nM

SMILES: Clc1ccc(OC[C@H]2CCN2)cn1
- Ki (α4β2 nicotine receptor): 0.037 nM
- Ki (α7 nicotine receptor): 13800 nM
- Ki [1]: 0.037 nM
